Like-named read-outs stand apart in the source and are kept apart here.
What was measured:
[1] = biological target: rat hepatocytes; design: method as in PMID 3418494; settings: cited from earlier work
[2] = biological target: human hepatocytes; settings: cited from earlier work
[3] = biological target: surface of ciPTEC; assay: Facilitated-dissociation model fit: dissociation constant between albumin and the surface of ciPTEC (Kd,m); format: binding, human
Text: By assuming that the ratio of CLb,int to CLint,u(−HSA) and Bmax are ligand-independent constants, eq 5 may be further reduced to [drawing 6] 6 EFD is a ligand-independent constant representing the extent of facilitated dissociation [drawing 7] for each transporter.[22] […] Afterward, Kd,m of ciPTEC-OAT1 was assumed equal to ciPTEC-OAT3 in order to estimate the EFD for OAT1.

Kd ([3]; estimates from eqs 4 and 6): 520 to 542 µM
Kd ([3]; full facilitated-dissociation model (eq 4), active and passive uptake): 581 ± 243 µM
Kd ([3]; full facilitated-dissociation model (eq 4), active uptake only): 542 ± 217 µM
Kd ([3]; reduced facilitated-dissociation model (eq 6), OAT3 R values): 520 ± 434 µM
Substance: albumin: human serum albumin, the major plasma protein, added to the uptake buffer at 1 and 4%
Kd [1]: 157 µM
Kd ([2]; Hepatocytes-OATP1B1/3, published estimate, ref SI 10): 46 µM
Kd ([2]; human hepatocytes): 45.2 µM

— article PMC11372837, “Albumin-Mediated Drug Uptake by Organic Anion Transporter 1/3 Is Real: Implications for the Prediction of Active Renal Secretion Clearance” (Molecular Pharmaceutics, 2024)
